Experimental data reported in patent publication US11344527B2, “Methods and compositions for treating cancer” (Sutter West Bay Hospitals, priority 2007, dated 2022).

Assays:
[1] = system: Id-1; assay: Id-1 protein expression by quantitative Western analysis, MDA-MB231; type: cell-based, human; conditions: FIG. 7C
Excerpt: Proteins were separated by SDS/PAGE, blotted on Immobilon membrane, and probed with anti-Id-1 and the appropriate secondary antibody. Band intensity values were obtained directly from the blot using AlphaeaseFC software (San Leandro, Calif.) or from film using Image-J (NIH, MD). As a normalization control for loading, blots were stripped and re-probed with mouse alpha-tubulin (Abeam, Cambridge, Mass.).
The ability of CBD to regulate the expression of key genes that control breast cancer cell aggressiveness and invasiveness was determined A potential candidate protein that could mediate the effects of CBD on both phenotypes was the helix-loop-helix protein Id-1. […] The inhibitory effect of CBD on Id-1 expression occurred at concentrations as low as 100 nM. […] The CBD concentrations effective at inhibiting Id-1 expression correlated with those used to inhibit the proliferative and invasive phenotype of MDA-MB231 cells. Furthermore, the time period needed to observe the down-regulation of Id-1 protein in the presence of CBD correlated with the inhibitory effects of CBD on the aggressiveness and invasiveness of MDA-MB231 cells (FIG. 1, panel D).
In order to determine the SAR between cannabinoids and the inhibition of Id-1, MDA-MB231 cells were treated for two days with multiple cannabinoid compounds and Id-1 protein levels were assessed.

[2] = system: MDA-MB231+Id1 cells; assay: Boyden chamber invasion assay, MDA-MB231 cells ectopically expressing Id-1; conditions: 1.5 μM, two day treatment, ectopic Id-1; FIG. 7

## C=C(C)[C@@H]1CCC(C)=C[C@H]1c1c(O)cc(CCCCC)cc1O [CBD, cannabidiol]
[1]; Western blotting
  Id-1 expression, control MDA-MB231 (-Id1) cells: down-regulation
[1]; cells that ectopically expressed Id-1
  Id-1 expression, MDA-MB231+Id1 cells: did not inhibit
[2]
  cell invasiveness, MDA-MB231+Id1 cells: did not inhibit
